Values quoted from earlier work as cited in patent US20220288273A1, “OSTEOINDUCTIVE MODIFIED GELATIN HYDROGELS AND METHODS OF MAKING AND USING THE SAME” (THE REGENTS OF THE UNIVERSITY OF CALIFORNIA, priority 2019, published 2022).

Conditions: in vivo

B1: rhBMP2: human recombinant bone morphogenetic protein 2 (protein, UniProt P12643 283-396, looked up)
Bone morphogenetic protein 2: QAKHKQRKRLKSSCKRHPLYVDFSDVGWNDWIVAPPGYHAFYCHGECPFPLADHLNSTNHAIVQTLVNSVNSKIPKACCVPTELSAISMLYLDENEKVVLKNYQDMVVEGCGCR
efficacy of peri-implant bone regeneration: 30-40%
